In this test the test system is Scram (DNA, duplex) GTCGTTCTGATCCAGGTGATGTAGTCGACG/CGTCGACTACATCACCTGGATCAGAACGAC
The experiment in a line: fluorescence turn-on. The conditions noted are these: KCl 150 mM in p53 buffer (80% v/v); NaCl 50 mM in DNA buffer (15% v/v); NaPi pH 7.2, DTT, Tris-HCl, 5% DMSO; room temperature; dye 100 nM.

Molecules are shown by their SMILES.

With `N#C/C(=C\c1ccc2ccc3cccc4ccc1c2c34)C(=O)O`, the binding result is “weak”.

The record behind these values is paper PMC6113202.
